Earlier results in patent US8637702B2, “Derivatives of N-hydroxybenzamide for treating HIV infections” (Italfarmaco S.p.A., priority 2009, dated 2014).

Test system: Chinese Hamster Ovary (CHO) cells
Conditions: in vitro, Zolinza package leaflet; cited from earlier work

O=C(CCCCCCC(=O)Nc1ccccc1)NO [SAHA]
chromosome aberrations: causes chromosome aberrations
